Data on three compounds can be found in US8231900B2.

Structures are written as SMILES. Only a part of the results on these compounds is given; other tests are left out.

Series [1] is described as follows: PK of sublingual sufentanil solution and swallowed sufentanil NanoTab vs IV sufentanil in Beagle dogs. The settings on record: Beagle dog; for Therapeutic Plateau Ratio (TTR): literature IV half-life 139 min.
Series [2] is described as follows: PK of sublingual sufentanil NanoTab (formulation #44) vs IV sufentanil in Beagle dog model. The following applies: IV 5 mcg.
Series [3] in a line: Human clinical PK study of sublingual sufentanil NanoTabs vs IV sufentanil in healthy volunteers. The settings on record: IV 5 mcg infusion over 10 min.
The conditions of series [4]: beagle dogs; cited from earlier work.
The nature of series [5]: PK of sublingual alfentanil NanoTab (#63) vs IV alfentanil in Beagle dogs. The following applies: Beagle dog.
Series [6] can be described thus: PK of sublingual fentanyl NanoTabs (#60, #62) vs IV fentanyl in Beagle dogs. The settings on record: Beagle dog.
Setting [7] is: sublingually instilled solution 5 μg.

By Cmax is commonly meant the highest concentration seen after dosing. As a reminder, the Tmax is the time from dosing to the highest level. Regarding `CCC(=O)N(c1ccccc1)C1(COC)CCN(CCc2cccs2)CC1`, the results for the peak concentration (Cmax) in series [1] (IV bolus 5 μg), in series [1] (setting [7]) and in series [2] were 0.5367 ± 0.1861 ng/mL, 0.2364 ± 0.17 ng/mL and 0.5367 ± 0.1861 ng/mL, respectively. Also, the results for the “Plasma Half-life” value in series [1] (IV bolus 5 μg), in series [1] (setting [7]) and in series [2] were 2.8 ± 0.4 min, 8.3 ± 4.5 min and 10.3 ± 4.5 min, respectively. Further, the “Therapeutic Plateau Ratio (TTR)” value was 0.03 in series [1] (IV bolus 5 μg, listed as IV sufentanil); 0.02 ± 0.0 in series [1] (IV bolus 5 μg, listed as Intravenous Sufentanil); 0.06 in series [1] (setting [7]); 0.04 ± 0.02 in series [1] (sublingually instilled solution 5 μg, listed as Sublingual Sufentanil solution). The Tmax amounted to 4.3 ± 1.0 min in series [1] (setting [7]) and 1.6 ± 0.6 min in series [2]. The AUC (Mean ± SD) in series [1] (sublingually instilled solution 5 μg, n=6) came to 0.0583 ng·h/mL; in series [2] (n=3), 0.211 ng·h/mL. The “F1 (%) oral (GI) bioavailability” value in series [1] (swallowed (oral) 5 mcg NanoTab) is 12%. For the same compound, the “Plasma Elimination Half-life” value in series [3] came to 71.4 ± 10.8 min. Moreover, in series [3] (n=12), the “AUC (hr*ng/ml) (mean ± SD)” value worked out at 0.0368 ± 0.0076 ng·h/mL.
Consider `CCC(=O)N(c1ccccc1)C1(COC)CCN(CCn2nnn(CC)c2=O)CC1`, for which, in series [4], the “published IV terminal elimination half-life” value is 104 min. Also, the peak concentration (Cmax) in series [5] (IV 253 μg) amounted to 139.1 ± 76.4 ng/mL. In series [5] (IV 253 μg alfentanil base, n=3), this compound registered an AUC (Mean ± SD) of 15.3 ng·h/mL.
Compound `CCC(=O)N(c1ccccc1)C1CCN(CCc2ccccc2)CC1` gave a Cmax in series [6] (IV bolus 70 μg) of 7.8959 ± 6.096 ng/mL. This compound gave an AUC (Mean ± SD) in series [6] (IV bolus 70 μg fentanyl base (Sublimaze), n=3) of 3.16 ng·h/mL.
